The source of these data is patent publication US12281155 (INSTITUT PASTEUR, dated 2025).

Sequences of proteins named here, by UniProt entry; tags and fusion partners are left off.
UniProt P12956, whole entry, chain 1 of 2: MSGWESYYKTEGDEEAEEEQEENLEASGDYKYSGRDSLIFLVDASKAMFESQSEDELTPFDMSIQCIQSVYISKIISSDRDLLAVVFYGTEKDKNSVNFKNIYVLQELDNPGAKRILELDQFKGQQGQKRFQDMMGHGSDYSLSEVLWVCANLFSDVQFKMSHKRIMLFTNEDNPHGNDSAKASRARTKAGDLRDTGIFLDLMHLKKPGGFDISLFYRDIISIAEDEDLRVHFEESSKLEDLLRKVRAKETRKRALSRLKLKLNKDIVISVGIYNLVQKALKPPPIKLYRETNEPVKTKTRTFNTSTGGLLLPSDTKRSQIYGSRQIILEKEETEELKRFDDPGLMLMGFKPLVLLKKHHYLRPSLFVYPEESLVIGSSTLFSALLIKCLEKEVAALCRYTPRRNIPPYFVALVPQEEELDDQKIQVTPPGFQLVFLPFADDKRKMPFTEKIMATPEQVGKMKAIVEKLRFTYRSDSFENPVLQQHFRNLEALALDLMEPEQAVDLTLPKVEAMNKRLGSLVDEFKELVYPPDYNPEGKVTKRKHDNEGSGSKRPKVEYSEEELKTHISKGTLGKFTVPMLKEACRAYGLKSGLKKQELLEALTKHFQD
Ku, UniProt P13010, whole entry, chain 2 of 2: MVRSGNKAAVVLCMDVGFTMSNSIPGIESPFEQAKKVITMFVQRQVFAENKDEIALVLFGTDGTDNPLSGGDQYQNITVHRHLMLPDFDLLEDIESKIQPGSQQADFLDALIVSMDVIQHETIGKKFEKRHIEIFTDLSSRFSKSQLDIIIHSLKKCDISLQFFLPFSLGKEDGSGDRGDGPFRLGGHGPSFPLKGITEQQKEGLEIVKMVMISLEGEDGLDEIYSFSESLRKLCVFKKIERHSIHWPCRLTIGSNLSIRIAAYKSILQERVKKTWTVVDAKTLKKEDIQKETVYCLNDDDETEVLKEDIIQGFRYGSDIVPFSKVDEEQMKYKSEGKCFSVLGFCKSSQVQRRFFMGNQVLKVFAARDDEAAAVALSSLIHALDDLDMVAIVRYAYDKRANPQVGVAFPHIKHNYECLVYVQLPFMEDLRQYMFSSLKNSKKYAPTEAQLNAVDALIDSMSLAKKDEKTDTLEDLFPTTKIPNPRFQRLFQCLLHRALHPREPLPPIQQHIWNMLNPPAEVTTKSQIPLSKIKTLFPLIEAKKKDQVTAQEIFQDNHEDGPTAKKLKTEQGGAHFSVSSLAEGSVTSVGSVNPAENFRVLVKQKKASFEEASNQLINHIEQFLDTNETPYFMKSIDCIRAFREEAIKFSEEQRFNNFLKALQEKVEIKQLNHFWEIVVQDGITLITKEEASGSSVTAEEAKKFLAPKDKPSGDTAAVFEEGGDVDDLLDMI

Numbering of substitutions follows the chain as printed.

Assay [1] has as its target T1, Ku (UniProt P12956 1-609; P13010 1-732). Briefly: Milliplex autoantigen bead assay.
The target of assay [2] is T1, Ku. Kind of assay: Milliplex autoantigen bead assay (FIG. 2).

B1: SPK002 antibody (parental version Cv2.3194 described in WO 2022/228827) (antibody, V domains shown)
VH: EVQLVESGGGLIQPGGSLRLSCAASGITVTSNYMSWVRQAPGKGLEWVSVIYPGGSTFYADSVKGRFTISRDNSKNTLYLQMNSLRAEDTAVYYCARDLVVYGMDVWGQGTTVTVS
VL: EIVLTQSPGTLSLSPGERATLSCRASQSVSSSYLAWYQQKPGQAPRLLIYGASSRATGIPGRFSGSGSGTDFTLTISRLEPEDFAIYYCQQGVTFGGGTKVEIK
notes: also called SKP002; parent antibody
With B1, the binding result with Ku [1] is given as “no binding (tested: 25 µg/ml)”.

B2: SPK002M A1 antibody (antibody, human IgG1, kappa, V domains shown)
VH: EVQLVESGGGLIQPGGSLRLSCAASTITVTSNYMSWVRQAPGKGLEWVSVIYPGGSTFYADSVKGRFTISADNSKNTLYLQMNSLRAEDTAVYYCARDLVVYGMDVWGQGTTVTVSS
VL: EIVLTQSPGTLSLSPGERATLSCRASQGFSSSYLAWYQQKPGQAPRLLIYGASSRATGIPGRFSGSGSGTDFTLTISRLEPEDFAVYYCQQGVTFGGGTKVEIKR
B2: the binding result in the assay with Ku [2] is on record as “no binding (tested: 25 µg/ml)”.

B3: SPK002M B2 antibody (antibody, human IgG1, kappa, V domains shown)
VH: B2 VH with T26I, A71Y
VL: B2 VL with G28S, F29V, V86I
In the case of B3, in the assay with Ku [2], the binding result is listed as “no binding (tested: 25 µg/ml)”.

B4: SPK002M A6 antibody (antibody, human IgG1, kappa, V domains shown)
VH: B2 VH with T26G
VL: B2 VL with G28S, F29V, V86I
Consider B4, for which, in the assay with Ku [2], the binding result was “no binding (tested: 25 µg/ml)”.

B5: SPK002M A5 antibody (antibody, human IgG1, kappa, V domains shown)
VH: B2 VH with T26V
VL: B2 VL with G28S, F29V, V86I
For B5, the binding result with Ku [2] was “no binding (tested: 25 µg/ml)”.

B6: SPK002M A2 antibody (antibody, human IgG1, kappa, V domains shown)
VH: B2 VH
VL: B2 VL with F29V
With B6, the binding result in the assay with Ku [2] was “no binding (tested: 25 µg/ml)”.

B7: SPK002M B1 antibody (antibody, human IgG1, kappa, V domains shown)
VH: B2 VH with T26I, A71Y
VL: B2 VL with G28S, F29V, S31D, V86I, Q91Y
B7: the binding result with Ku [2] is given as “no binding (tested: 25 µg/ml)”.
